Data from patent US20240174690A1, “ANNULATED 2-AMINO-3-CYANO THIOPHENES AND DERIVATIVES FOR THE TREATMENT OF CANCER” (BOEHRINGER INGELHEIM INTERNATIONAL GMBH, priority 2021, published 2024).

By UniProt entry, the sequences of proteins in these tests, tags left out. Chains listed by the source or under a name are the forms on record and can include a tag or linker. Residues count along the entry.
UniProt P01116, 1-164 with tags or gaps G12D limits assumed: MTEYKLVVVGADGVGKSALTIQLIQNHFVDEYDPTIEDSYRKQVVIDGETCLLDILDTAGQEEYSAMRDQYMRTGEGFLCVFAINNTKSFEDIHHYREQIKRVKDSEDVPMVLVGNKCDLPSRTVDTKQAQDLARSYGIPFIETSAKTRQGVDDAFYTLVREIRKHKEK

Legend:
KRAS (G12D)::SOS1 = KRAS (G12D)::SOS1 (Homo sapiens (Human), UniProt P01116, G12D); assay: KRAS::SOS1 AlphaScreen binding assay, KRAS G12D; conditions: read-out: KRAS G12D IC50
From the text: This assay can be used to examine the potency with which compounds according to the invention binding to (mutated) KRAS inhibit the protein-protein interaction between SOS1 and (mutated) KRAS e.g., KRAS WT, KRAS G12C, KRAS G12D, KRAS G12V, KRAS G13D. […] Low IC50 values in this assay setting are indicative of strong inhibition of protein-protein interaction between SOS1 and KRAS:
These assays measure the inhibitory effect of compounds on KRAS mutant protein-protein interactions using the Alpha Screen technology by Perkin Elmer. […]
Plates are kept at room temperature in a darkened incubator. After an additional 60 minutes incubation time the signal is measured in a PerkinElmer Envision HTS Multilabel Reader using the AlphaScreen specs from PerkinElmer. […]
As internal control known inhibitors of KRAS mutant::SOS1 interaction can be measured on each compound plate. […]

NCI-H2122 cells = assay: NCI-H2122 CTG proliferation assay (120 h) (NSCLC, G12C); conditions: read-out: H2122 IC50
Description: NCI-H2122 CTG Proliferation Assay (120 h) (NSCLC, G12C)
The CTG assay is designed to measure quantitatively the proliferation of NCI-H2122 cells (ATCC CRL-5985), using the CellTiter Glow Assay Kit (Promega G7571). Cells are grown in RPMI medium (ATCC) supplemented with Fetal Calf Serum (Life Technologies, Gibco BRL, Cat. No. 10270-106). On “day 0” 200 NCI-H2122 cells are seeded in 60 μL RPMI ATCC+10% FCS+Penstrep in a black 384-well plate, flat and clear bottom (Greiner, PNr. 781091). Cells are then incubated in the plates at 37° C. in a CO2 incubator overnight. On day 1, compounds (10 mM stock in DMSO) are added with the ECHO acoustic liquid handler system (Beckman Coulter), including DMSO controls. Plates are incubated for 120 h, and cell viability is measured using CellTiter-Glo luminescent cell viability reagent (Promega product code G7570). Viability (stated as percent of control) is defined as relative luminescence units RLU of each well divided by the RLU of cells in DMSO controls. IC50 values are determined from viability measurements by non-linear regression using a four parameter model.

Compound `Cc1ccncc1-c1cn(-c2cc(O[C@@H](C)[C@@H]3CCCN3C)nc(-c3noc4c3CCC[C@@]43CCCc4sc(N)c(C#N)c43)n2)nn1` has an IC50 (KRAS (G12D)::SOS1) of 2 nM and an IC50 (NCI-H2122 cells) of 1160 nM.
